Laboratory results published in patent publication US20030138508A1 (priority 2001, published 2003).

Assay: flashbar vaporization of THC, HPLC of aerosol
Assay type: physicochemical
Details: about 1 mg coated, about 400° C. within about 200 milliseconds; cannabinol primary impurity

CCCCCc1cc(O)c2c(c1)OC(C)(C)[C@@H]1CCC(C)=C[C@@H]21 [THC, Δ^9-Tetrahydrocannabinol]
purity of aerosol after vaporization: approximately 98%
